{"source": "PubChem BioAssay AID1471", "about": "(National Center for Advancing Translational Sciences (NCATS), 2008)", "test": "qHTS Multiplex Assay to Identify Dual Action Probes in a Cell Model of Huntington: Cytoprotection (ATP);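 also: toxic huntingtin expression switched on by the ecdysone agonist tebufenozide; % of control where 0% means no effect; nearly all actives have a fitted effect of over 45% in size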", "conditions": "PC12 HTT-Q103 induced, ATP luminescence, 40 h", "source_text": "NIH Chemical Genomics Center [NCGC]\nNIH Molecular Libraries Probe Production centers Network [MLPCN]\nAssay Submitter (PI): Wei Zheng\nHuntington's disease is a neurodegenerative disorder caused by a trinucleotide repeat expansion in Exon 1 of the Huntingtin gene. The CAG trinucleotide encodes glutamine and polyglutamine expansions cause cell death in selective areas of the brain. Huntington polyglutamine repeats have the tendency to form aggregates which are observable in later stages of the disease. The exact nature of the aggregates, whether toxic, protective, or insignificant, is unclear.\nA stable PC12 cell line containing a gene fusion of Exon 1 of the Huntingtin gene linked to GFP under the control of the inducible ecdysone promoter were used as the cell-based model of Huntington Disease for high throughput screening. Exon 1 of the Huntingtin gene contained an expansion of 103 polyglutamines (Q103) which, when expressed, caused cell death and distinct, bright GFP aggregates. The amount of cell death and the size and intensity of GFP aggregates increased over time and induction level. The cell death were quantified with a measurement of ATP content in the cells. A maximal 40-50% of cell death was observed when the Huntington gene was induced in this cell line.\nWe optimized this assay in a homogeneous 1536 well format. A quantitative high throughput screen (qHTS) was conducted on the PC12 cells which were induced to express the toxic fusion construct. Small molecules which prevented cell death were identified by using a luminescent ATP quantification method (Perkin Elmer's ATPlite).\nPC12 cells stably containing a construct with an ecdysone inducible promoter expressing GFP fused to the exon 1 of HTTQ103 (Huntington protein which containing a 103 ployglutamine expansion) were used.\nNCGC Assay Protocol Summary:\nSequence, Parameter, Description\n1, Reagent, 5 uL 1500 cells/well 1536 TC treated White clear bottom plate\n2, Compound, 23 nL Tebufenozide inducer (100 nM final) to all columns\n3, Compound, 23 nL 40 uM to 0.5 nM Libraries\n5, Reagent, 5 ul ATPLite cell death assay reagent\n6, Detector, 4 sec integration with a Viewlux Luminescent\nMedia consisted of phenol red free DMEM + 5% equine serum (Hyclone # SH30072.03 ), 5% supplemented Bovine Calf Serum (Hyclone # SH30074.03 ), 1x pen/strep, no G418\nControl columns: 1 = DMSO, 2= 2 uM teb dilns (1:1), 4 = 100 nM Teb inducer. Sample columns received 100 nM Teb.", "key": {"[1]": {"conditions": "at 10 µM (top of the series) unless noted"}}, "note": "This is a selection; strong and weak results do not stand in their true shares. Activity calls are given as the source filed them. Calls follow the shape of the dose curve; as a rule, active = well fitted activation curve with a large enough effect; inconclusive = small, poorly fitted or top-dose-only effect; inactive = no such curve, though single readings can be large or run the other way.", "data": [{"compound": "Nc1cccc([As](=O)(O)c2ccccc2)c1", "values": [{"measurement": "cytoprotection (ATP increase)", "setting": "[1]", "result": "inactive: 3.07%"}]}, {"compound": "O=P1(Nc2ccc(Br)cn2)COc2ccccc2OC1", "values": [{"measurement": "cytoprotection (ATP increase)", "setting": "[1]", "result": "inactive: -5.07% [at 0.074 µM]"}]}, {"compound": "Cc1ccc(OCC(=O)OC2CN3CCC2CC3)cc1", "note": "(stereo not drawn)", "values": [{"measurement": "cytoprotection (ATP increase)", "setting": "[1]", "result": "inactive: 15.7%"}]}, {"compound": "O=[As](O)(c1cccs1)c1cccs1", "values": [{"measurement": "cytoprotection (ATP increase)", "setting": "[1]", "result": "inactive: 8.94%"}]}, {"compound": "O=P1(Nc2ncccn2)COc2ccccc2OC1", "values": [{"measurement": "cytoprotection (ATP increase)", "setting": "[1]", "result": "inactive: -11.5% [at 0.074 µM]"}]}, {"compound": "CN(C)C1(CNC(=O)c2ccc(S(C)(=O)=O)cc2)CCCCC1", "values": [{"measurement": "cytoprotection (ATP increase)", "setting": "[1]", "result": "inactive: 12.9%"}]}, {"compound": "O=C(/C=C/c1ccccc1)OC1CN2CCC1CC2", "note": "(stereo not drawn)", "values": [{"measurement": "cytoprotection (ATP increase)", "setting": "[1]", "result": "inactive: -1.96%"}]}, {"compound": "CC1CCC(C(C)C)C(OP(=O)(Nc2ccccn2)c2ccccc2)C1", "note": "(stereo not drawn)", "values": [{"measurement": "cytoprotection (ATP increase)", "setting": "[1]", "result": "inactive: -181% [at 56.4 µM]"}]}, {"compound": "Cc1nn(-c2ccccc2)c2c1P(=O)(N1CCOCC1)N(C)C(c1ccccc1)=N2", "note": "(stereo not drawn)", "values": [{"measurement": "cytoprotection (ATP increase)", "setting": "[1]", "result": "inactive: -3.43%"}]}, {"compound": "CN(C(=O)Cc1ccc(Cl)c(Cl)c1)[C@@H]1CCCC[C@H]1N1CCCC1", "values": [{"measurement": "cytoprotection (ATP increase)", "setting": "at 56.4 µM (top of the series)", "result": "inactive: -81.8%"}]}, {"compound": "CC(C)/C=N\\N=C(\\N)N[N+](=O)[O-]", "values": [{"measurement": "cytoprotection (ATP increase)", "setting": "[1]", "result": "inactive: -31% [at 56.4 µM]"}]}, {"compound": "O=[As](O)(c1ccccc1Br)c1ccccc1Br", "values": [{"measurement": "cytoprotection (ATP increase)", "setting": "[1]", "result": "inactive: 14.6%"}]}, {"compound": "CC(C)(C)C(=O)NC(Sc1ncccn1)C(Cl)(Cl)Cl", "note": "(stereo not drawn)", "values": [{"measurement": "cytoprotection (ATP increase)", "setting": "[1]", "result": "inactive: -8.15%"}]}, {"compound": "Clc1n[nH]nc1-c1nn[nH][15n]1", "values": [{"measurement": "cytoprotection (ATP increase)", "setting": "[1]", "result": "inactive: 19.2% [at 56.4 µM]"}]}, {"compound": "O=P1(Nc2ccccn2)COc2ccccc2OC1", "values": [{"measurement": "cytoprotection (ATP increase)", "setting": "[1]", "result": "inactive: 1.07% [at 56.4 µM]"}]}, {"compound": "CN(CCCl)Cc1cc(Cl)c(NC2=NCCN2)c(Cl)c1", "values": [{"measurement": "cytoprotection (ATP increase)", "setting": "at 1.9 µM (top of the series)", "result": "inactive: 12.8%"}, {"measurement": "cytoprotection (ATP increase)", "setting": "at 56.4 µM (top of the series)", "result": "inactive: -60.7%"}]}, {"compound": "CCOP(=O)(Nc1ccc(C)cn1)OCC", "values": [{"measurement": "cytoprotection (ATP increase)", "setting": "[1]", "result": "inactive: 21%"}]}, {"compound": "COc1cc(C2NCCC3(OCCO3)C2(C)C)cc(OC)c1OC", "note": "(stereo not drawn)", "values": [{"measurement": "cytoprotection (ATP increase)", "setting": "[1]", "result": "inactive: 7.83% [at 0.074 µM]"}]}, {"compound": "CN(C(=O)Cc1ccc(Cl)c(Cl)c1)[C@@H]1CC[C@@]2(CCCO2)C[C@H]1N1CCCC1", "values": [{"measurement": "cytoprotection (ATP increase)", "setting": "[1]", "result": "inactive: 6.86% [at 1.9 µM]"}]}, {"compound": "O=C(CC(=O)c1ccccc1)O[C@H]1CN2CCC1CC2", "values": [{"measurement": "cytoprotection (ATP increase)", "setting": "[1]", "result": "inactive: 19.4%"}]}, {"compound": "Nc1cccc2c([As](=O)(O)O)cccc12", "values": [{"measurement": "cytoprotection (ATP increase)", "setting": "[1]", "result": "inactive: 20.3%"}]}, {"compound": "NS(=O)(=O)Cc1ccc([As](=O)(O)O)cc1", "values": [{"measurement": "cytoprotection (ATP increase)", "setting": "[1]", "result": "inactive: 4.1%"}]}, {"compound": "CCCOP(=S)(Nc1nc(N)cc(=O)[nH]1)OCCC", "values": [{"measurement": "cytoprotection (ATP increase)", "setting": "[1]", "result": "inactive: -31.6%"}]}, {"compound": "O=[As](O)(c1cccc(O)c1)c1cccc(O)c1", "values": [{"measurement": "cytoprotection (ATP increase)", "setting": "[1]", "result": "inactive: 18.6%"}]}, {"compound": "Cc1cccc(OCC(=O)OC2CN3CCC2CC3)c1", "note": "(stereo not drawn)", "values": [{"measurement": "cytoprotection (ATP increase)", "setting": "[1]", "result": "inactive: -4.86% [at 56.4 µM]"}]}, {"compound": "CN(C(=O)Cc1ccc(Cl)c(Cl)c1)[C@@H]1CC[C@]2(CCCO2)C[C@H]1N1CCCC1", "values": [{"measurement": "cytoprotection (ATP increase)", "setting": "[1]", "result": "inactive: -45% [at 56.4 µM]"}]}, {"compound": "O=C(OC1CN2CCC1CC2)c1ccc(Cl)cc1", "note": "(stereo not drawn)", "values": [{"measurement": "cytoprotection (ATP increase)", "setting": "[1]", "result": "inactive: 10.7%"}]}, {"compound": "O=[As](O)(O)c1cccnc1", "values": [{"measurement": "cytoprotection (ATP increase)", "setting": "[1]", "result": "inactive: 3.39%"}]}, {"compound": "CN(C(=O)Cc1ccccc1)[C@@H]1CC[C@]2(CCCO2)C[C@H]1N1CCCC1", "values": [{"measurement": "cytoprotection (ATP increase)", "setting": "[1]", "result": "inactive: 17%"}]}, {"compound": "CCOP1(=S)c2c(C)nn(CCC#N)c2N=C(c2ccc(F)cc2)N1C", "note": "(stereo not drawn)", "values": [{"measurement": "cytoprotection (ATP increase)", "setting": "[1]", "result": "inactive: -4.09%"}]}, {"compound": "O=[N+]([O-])c1ccc2c(c1)nnn2O", "values": [{"measurement": "cytoprotection (ATP increase)", "setting": "[1]", "result": "inactive: 0.691% [at 56.4 µM]"}]}, {"compound": "NC(=O)Nc1ccc([As](=O)(O)O)cc1", "values": [{"measurement": "cytoprotection (ATP increase)", "setting": "at 10 µM (top of the series)", "result": "inactive: -9.44%"}, {"measurement": "cytoprotection (ATP increase)", "setting": "at 56.4 µM (top of the series)", "result": "inactive: -1.63%"}]}, {"compound": "O=C(O)COc1ccc([As](=O)(O)O)cc1[N+](=O)[O-]", "values": [{"measurement": "cytoprotection (ATP increase)", "setting": "[1]", "result": "inactive: -11.8%"}]}, {"compound": "Nc1ccccc1[As](=O)(O)c1ccccc1", "values": [{"measurement": "cytoprotection (ATP increase)", "setting": "[1]", "result": "inactive: 6.88%"}]}, {"compound": "O=[As](O)(O)c1ccc([As](=O)(O)O)cc1", "values": [{"measurement": "cytoprotection (ATP increase)", "setting": "[1]", "result": "inactive: -1.02%"}]}, {"compound": "O=P(Nc1nccs1)(c1ccccc1)c1nc2ccccc2s1", "note": "(stereo not drawn)", "values": [{"measurement": "cytoprotection (ATP increase)", "setting": "[1]", "result": "inactive: 0.577%"}]}, {"compound": "O=P(Nc1nccs1)(Oc1ccccc1)Oc1ccccc1", "values": [{"measurement": "cytoprotection (ATP increase)", "setting": "[1]", "result": "inactive: -25.7% [at 56.4 µM]"}]}, {"compound": "CCOP1(=S)c2c(C)nn(CCC#N)c2N=C(c2ccccc2F)N1C", "note": "(stereo not drawn)", "values": [{"measurement": "cytoprotection (ATP increase)", "setting": "[1]", "result": "inactive: -5.47%"}]}, {"compound": "CS(=O)(=O)c1cc([N+](=O)[O-])c2no[n+]([O-])c2c1", "values": [{"measurement": "cytoprotection (ATP increase)", "setting": "[1]", "result": "inactive: 23.2%"}]}, {"compound": "CCN(CC)C(=S)SC(NC=O)C(Cl)(Cl)Cl", "note": "(stereo not drawn)", "values": [{"measurement": "cytoprotection (ATP increase)", "setting": "[1]", "result": "inactive: -23.1% [at 56.4 µM]"}]}, {"compound": "CC(C)NC(=O)NP(=O)(Oc1ccccc1)Oc1ccccc1", "values": [{"measurement": "cytoprotection (ATP increase)", "setting": "[1]", "result": "inactive: -5.9% [at 56.4 µM]"}]}, {"compound": "ClCCSc1nnc(-c2cccnc2)o1", "values": [{"measurement": "cytoprotection (ATP increase)", "setting": "[1]", "result": "inactive: 5.57%"}]}, {"compound": "O=[As]c1ccc(S(=O)(=O)NCCO)cc1", "note": "(stereo not drawn)", "values": [{"measurement": "cytoprotection (ATP increase)", "setting": "[1]", "result": "inactive: -2.36%"}]}, {"compound": "CC(C)c1ccc(OP(=O)(Nc2ccccn2)Oc2ccccc2F)cc1", "note": "(stereo not drawn)", "values": [{"measurement": "cytoprotection (ATP increase)", "setting": "[1]", "result": "inactive: 26.7%"}]}, {"compound": "[N-]=[N+]=NCC(N)=O", "values": [{"measurement": "cytoprotection (ATP increase)", "setting": "[1]", "result": "inactive: -3.06%"}]}, {"compound": "Cc1ccc(OP(=O)(Nc2ccc([N+](=O)[O-])cn2)Oc2ccc(C)cc2)cc1", "values": [{"measurement": "cytoprotection (ATP increase)", "setting": "[1]", "result": "inactive: 17.4%"}]}]}
